Molecular target: Werner syndrome protein (human (endogenous in NCCIT)) (UniProt Q14191)
Test: co-IP

percent of chromatin-bound Dnmt3b associated with WRNp (densitometry): < 10%
Substance: de novo DNA methyltransferase Dnmt3b (from UniProt Q9UBC3 1-853) (enzyme)
